Results reported in article PMC12845078 (Pharmaceuticals, 2025).

Experiment: Pharmacokinetics of MT and CBD in rats after pre-administration of ABT
Details: ABT-model rats, MT + CBD (5 + 20) mg/kg vs MT 5 mg/kg

COc1ccc2[nH]cc(CCNC(C)=O)c2c1 [MT, Melatonin]
decrease in AUC(0–t) of MT with CBD vs MT alone: approximately 43%
decrease in Cmax of MT with CBD vs MT alone: approximately 43%
